Data on one substance can be found in patent US20050085419A1, “Anti-growth factor receptor avidin fusion proteins as universal vectors for drug delivery” (The Regents of the University of California, priority 1999, published 2005).

The conditions of the data set: rat.
[1] abbreviates: intravenous injection, [125I]-biotin-PNA.

Like-named read-outs stand apart in the source and are kept apart here.

On to “5′-biotin-CTCCGCTTCTTCCTGCCA-Tyr-Lys-CONH2-3′ [[^125I]-Biotin-PNA]”, for which the brain uptake (60 min after intravenous injection, biotin-PNA, listed as [^125I] biotin-PNA) came to 0.0083±0.0009 % ID/g. In addition, the brain uptake (60 min after intravenous injection, biotin-PNA, listed as biotin-PNA) amounted to 0.0083 % ID/g. Under setting [1], the “BBB PS product” value worked out at 0.12 ± 0.01 µL/min/g, the “PS Product” value came to 0.12 ± 0.01 μl/ml/g brain and the “brain uptake” value was determined as 0.0083 ± 0.0009 % ID/g brain. Under “intravenous, biotin-PNA”, the “brain uptake increase when bound to anti-TfR IgG3-CH3-Av versus free biotin-PNA” value is recorded as “at least 15 fold”.
